Results taken from patent publication EP4778920A1, “INDAZOLONE COMPOUND, PREPARATION METHOD THEREFOR, PHARMACEUTICAL COMPOSITION, AND USE” (Shanghai Institute of Materia Medica, Chinese Academy of …, priority 2023, dated 2025).

What was measured:
Type in all cases: cell-based
[1] = system: MM.1S cells; experiment: MM.1S cell proliferation inhibition (MTS assay); conditions: Homo sapiens, MM1.S, 168 h, 7 days incubation, read-out: MM1.S (IC50, Inhibitory Activity of Compounds on MM.1S Cell Proliferation)
Procedure: The cell concentration was diluted according to a 7-day incubation period, and 180 µL of cell suspension was added to each well of a 96-well plate, with 20,000 cells per well. […] The test compounds were prepared from a 10 mM stock solution and serially diluted in a 5-fold gradient, and 20 µL of the diluted solution was added to each compound-treated well (final DMSO concentration also 0.2%). The cells were incubated in a 37 °C, 5% CO2 incubator for 7 days. After incubation, the reaction solution was prepared according to the MTS assay kit instructions (Promega, G5430), and 20 µL was added to each well. The plate was incubated at 37 °C with 5% CO2 for 3-4 hours. The absorbance at 490 nm was measured using a microplate reader, and the absorbance at 690 nm was used as the background value. […] The IC50 values for cell proliferation inhibition were determined using GraphPad Prism 5.0. Each experiment was repeated three times, and three parallel replicates were performed in each experiment to calculate the mean value and standard deviation.
Inhibitory Activity of Compounds on MM.1S Cell Proliferation

[2] = system: Mino cells; experiment: Mino cell proliferation inhibition (MTS assay); conditions: Homo sapiens, 72 h, 3 days incubation, read-out: Mino (IC50, Inhibitory Activity of Compounds on Mino Cell Proliferation)
Procedure: The cell concentration was diluted according to a 3-day incubation period, and 90 µL of cell suspension was added to each well of a 96-well plate, resulting in 8,000 cells per well. […] The test compounds were prepared from a 10 mM stock solution and serially diluted in a five-fold gradient. Similarly, 10 µL of the diluted compound solution was added to each compound-treated well (final DMSO concentration 0.2%).
The cells were incubated in a 37 °C, 5% CO2 incubator for 3 days. After incubation, the reaction solution was prepared according to the MTS assay kit instructions (Promega, G5430), and 20 µL was added to each well. The plate was further incubated at 37 °C with 5% CO2 for 3-4 hours. The absorbance at 490 nm was measured using a microplate reader, and the absorbance at 690 nm was used as the background value. The final raw data were calculated as OD490 - OD690. […] The IC50 values for cell proliferation inhibition were determined using GraphPad Prism 5.0. Each experiment was repeated three times, and three parallel replicates were performed in each experiment to calculate the mean value and standard deviation.
Table 2. Inhibitory Activity of Compounds on Mino Cell Proliferation

[3] = system: MV-4-11 cells; experiment: MV-4-11 cell proliferation inhibition (MTS assay); conditions: Homo sapiens, MV4-11, 168 h, 7 days incubation, read-out: MV-411 (IC50, Inhibitory Activity of Compounds on MV-4-11 Cell Proliferation)
Procedure: MV-4-11 cells were cultured in IMDM medium supplemented with 10% fetal bovine serum and collected. The cell concentration was diluted according to a 7-day incubation period, and 180 µL of cell suspension was added to each well of a 96-well plate, resulting in 2,000 cells per well. […] The test compounds were prepared from a 10 mM stock solution and serially diluted in a five-fold gradient, and 20 µL of the diluted compound solution was added to each compound-treated well (final DMSO concentration 0.2%). The cells were incubated in a 37 °C, 5% CO2 incubator for 7 days. After incubation, the reaction solution was prepared according to the MTS assay kit instructions (Promega, G5430), and 20 µL was added to each well. The plate was further incubated at 37 °C with 5% CO2 for 3-4 hours. The absorbance at 490 nm was measured using a microplate reader, and the absorbance at 690 nm was used as the background value. The final raw data were calculated as OD490 - OD690. […] The IC50 values for cell proliferation inhibition were determined using GraphPad Prism 5.0. Each experiment was repeated three times, and three parallel replicates were performed in each experiment to calculate the mean value and standard deviation.
Table 3. Inhibitory Activity of Compounds on MV-4-11 Cell Proliferation

SMILES: Nc1cccc2c1CN(C1CCC(=O)NC1=O)C2=O (stereo not drawn) [Lenalidomide, reference compound]
- IC50 [1]: < 0.2 µM
- IC50 [2]: > 10 µM
- IC50 [3]: > 20 µM
